Source: patent publication US8053553B2, “Targeting host proteinases as a therapeutic strategy against viral and bacterial pathogens” (Socpra Sciences Sante Et Humaines, priority 2007, dated 2011)

Molecular target: T1, furin (Homo sapiens, UniProt P09958)
T1 construct: made in house; host or cells: Drosophila S2 cells (Invitrogen expression system)
Assay: biochemical

[1] = furin, Pyr-RTKR-AMC substrate, optimization of the inhibitory peptides (Table 3)

CCCC[C@H](NC(=O)[C@H](CCCNC(=N)N)NC(=O)[C@H](CCCCN)NC(=O)[C@H](CCCCN)NC(=O)[C@H](CCCNC(=N)N)NC(=O)[C@H](CCCNC(=N)N)NC(=O)[C@H](CCCNC(=N)N)NC(=O)[C@H](C)NC(=O)[C@H](CCCNC(=N)N)NC(=O)[C@@H]1CCCN1C(=O)[C@@H](N)[C@@H](C)O)C(N)=O
Ki: 81 nM

CSC[C@H](NC(=O)[C@H](CCCNC(=N)N)NC(=O)[C@H](CCCCN)NC(=O)[C@H](CCCCN)NC(=O)[C@H](CCCNC(=N)N)NC(=O)[C@H](CCCNC(=N)N)NC(=O)[C@H](CCCNC(=N)N)NC(=O)[C@H](C)NC(=O)[C@H](CCCNC(=N)N)NC(=O)[C@@H]1CCCN1C(=O)[C@@H](N)[C@@H](C)O)C(N)=O
Ki: 65 nM

C[C@@H](O)[C@H](N)C(=O)N1CCC[C@H]1C(=O)N[C@@H](CCC(N)=O)C(=O)N[C@@H](CCCNC(=N)N)C(=O)N[C@@H](CCCNC(N)=O)C(=O)N[C@@H](CCCNC(=N)N)C(=O)N[C@@H](CCCNC(=N)N)C(=O)N[C@@H](CCCNC(=N)N)C(=O)N[C@@H](CCCCN)C(=O)N[C@@H](CCCCN)C(=O)N[C@@H](CCCNC(N)=O)C(=O)NCC(N)=O [TPQR4RRRKK4G]
Ki [1]: > 100 nM

CCCC[C@H](NC(=O)[C@H](CCCNC(=N)N)NC(=O)[C@H](CCC(N)=O)NC(=O)[C@@H]1CCCN1C(=O)[C@@H](N)[C@@H](C)O)C(=O)N[C@@H](CCCNC(=N)N)C(=O)N[C@@H](CCCNC(=N)N)C(=O)N[C@@H](CCCNC(=N)N)C(=O)N[C@@H](CCCCN)C(=O)N[C@@H](CCCCN)C(=O)N[C@@H](CCCNC(=N)N)C(=O)NCC(N)=O [TPQR6RRRKKRG]
Ki [1]: > 100 nM

CSC[C@H](NC(=O)[C@H](CCCNC(=N)N)NC(=O)[C@H](CCC(N)=O)NC(=O)[C@@H]1CCCN1C(=O)[C@@H](N)[C@@H](C)O)C(=O)N[C@@H](CCCNC(=N)N)C(=O)N[C@@H](CCCNC(=N)N)C(=O)N[C@@H](CCCNC(=N)N)C(=O)N[C@@H](CCCCN)C(=O)N[C@@H](CCCCN)C(=O)N[C@@H](CCCNC(=N)N)C(=O)NCC(N)=O [TPQR5RRRKKRG]
Ki [1]: > 100 nM

Like-named read-outs stand apart in the source and are kept apart here.
